According to US11666071B2, “Compound salt of N,N-dimethylglycine and an organic acid and composition and use thereof” (GUANGZHOU INSIGHTER BIOTECHNOLOGY CO., LTD., priority 2017, dated 2023):

Experiment: High-humidity stability test (hygroscopic weight gain)
Format: physicochemical
Settings: 25° C., RH 95%±1%

## Calcium salt of N,N-dimethylglycine and benzoic acid [Sample 5]
  hygroscopic weight gain, Day 5 (%): 3.54 ± 0.39%
  hygroscopic weight gain, Day 10 (%): 3.59 ± 0.28%

## Zinc salt of N,N-dimethylglycine and benzoic acid [Sample 12]
  hygroscopic weight gain, Day 5 (%): 3.03 ± 0.23%
  hygroscopic weight gain, Day 10 (%): 3.54 ± 0.08%
